# Results taken from patent US12570711B2, “Platforms for co-stimulation, novel car designs and other enhancements for adoptive cellular therapy” (Angeles Therapeutics, Inc., priority 2017, dated 2026).
# T1: CD19 (Homo sapiens, UniProt P15391)
# T1 sequence (P15391 20-556): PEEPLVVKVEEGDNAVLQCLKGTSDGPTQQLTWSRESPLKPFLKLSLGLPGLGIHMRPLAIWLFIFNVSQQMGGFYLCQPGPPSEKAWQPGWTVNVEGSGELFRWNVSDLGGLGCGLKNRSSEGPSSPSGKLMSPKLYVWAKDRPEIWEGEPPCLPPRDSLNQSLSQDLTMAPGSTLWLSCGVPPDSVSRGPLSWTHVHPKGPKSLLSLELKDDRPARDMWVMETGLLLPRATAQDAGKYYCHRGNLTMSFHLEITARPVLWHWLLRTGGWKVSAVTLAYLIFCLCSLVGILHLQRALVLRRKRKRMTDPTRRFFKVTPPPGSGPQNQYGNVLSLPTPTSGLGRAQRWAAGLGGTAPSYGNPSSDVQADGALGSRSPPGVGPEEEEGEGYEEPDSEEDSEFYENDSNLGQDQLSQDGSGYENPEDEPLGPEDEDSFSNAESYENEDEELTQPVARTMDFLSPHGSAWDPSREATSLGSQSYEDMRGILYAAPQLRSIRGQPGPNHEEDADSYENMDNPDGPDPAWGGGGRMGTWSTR
# B1: hNEMO-K277A-DeltaV249-K255: mutant lacking aminoacid residues V249-K255 of human NEMO and carrying the K277A mutation (protein)
# chain: MNRHLWKSQLCEMVQPSGGPAADQDVLGEESPLGKPAMLHLPSEQGAPETLQRCLEENQELRDAIRQSNQILRERCEELLHFQASQREEKEFLMCKFQEARKLVERLGLEKLDLKRQKEQALREVEHLKRCQQQMAEDKASVKAQVTSLLGELQESQSRLEAATKECQALEGRARAASEQARQLESEREALQQQHSVQVDQLRMQGQSVEAALRMERQAASEEKRKLAQLQVAYHQLFQEYDNHIKSSRGMQLEDLKQQLQQAEEALVAAQEVIDKLKEEAEQHKIVMETVPVLKAQADIYKADFQAERQAREKLAEKKELLQEQLEQLQREYSKLKASCQESARIEDMRKRHVEVSQAPLPPAPAYLSSPLALPSQRRSPPEEPPDFCCPKCQYQAPDMDTLQIHVMECIE
# Assays:
# CD3+ve T cells = experiment: Proliferation of T cells after lentiviral expression of NEMO mutants (cell numbers, long term culture); type: cell-based, human; conditions: expression in T cells
# Description: Thus, the disclosure provides composition and methods to enhance the survival, proliferation, cytokine secretion, delay exhaustion and senescence and improve the in vivo expansion, persistence and anti-tumor activity of an immune cell, e.g., T cell, e.g., CAR-T or TCR-T or SIR-T cell, and/or an immune cell expressing a non-naturally occurring immune receptor, via selective or preferential (i.e., without AKT activation) activation of the NF-κB pathway in the immune cell.
# Buffy coat cells were obtained from healthy de-identified adult donors from the Blood Bank at Children Hospital of Los Angeles and used to isolate peripheral blood mononuclear cells (PBMC) by Ficoll-Hypaque gradient centrifugation. PBMC were either used as such or used to isolate T cells using CD3 magnetic microbeads (Miltenyi Biotech) and following the manufacturer's instructions. PBMC or isolated T cells were re-suspended in XVIVO medium (Lonza) supplanted with 10 ng/ml CD3 antibody, 10 ng/ml CD28 antibody and 100 IU recombinant human-IL2. Cells were cultured at 37° C., in a 5% CO2 humidified incubator. Cells were activated in the above medium for 1 day prior to infection with lentiviral vectors. In general, primary cells (e.g. T cells) were infected in the morning using spin-infection (1800 rpm for 90 minutes at 37° C. with 300 μl of concentrated virus that had been re-suspended in XVIVO medium in the presence of 8 μg/ml of Polybrene® (Sigma, Catalog no. H9268). The media was changed in the evening and the infection was repeated for two more days for a total of 3 infections. After the 3rd infection, the cells were pelleted and resuspended in fresh XVIVO media containing 10 ng/ml CD3 antibody, 10 ng/ml CD28 antibody and 100 IU recombinant human-IL2 and supplemented with respective antibiotics (if indicated) and place in the cell culture flask for selection, unless indicated otherwise. Cells were cultured in the above medium for 10-15 days in case no drug selection was used and for 20-30 days in case drug-selection was used. In cases, where cells were infected with a lentivirus expressing EGFP, they were expanded without drug-selection or flow-sorted to enrich for EGFP-expressing cells. For infection of cancer cell lines, approximately 500,000 cells were infected with 2 ml of the un-concentrated viral supernatant in a total volume of 3 ml with Polybrene® (Sigma, Catalog no. H9268). Then next morning, the cells were pelleted and resuspended in the media with respective antibiotics and place in the cell culture flask for selection.
# The mouse NEMO-K270A (SEQ ID NO: 992) is known to activate NF-κB constitutively. […] Cells were cultured at 37° C., in a 5% CO2 humidified incubator, and after 1 day infected with a lentiviral vector (pLENTI-EGFP-Blasticidin) expressing EGFP and lentiviral vectors expressing mouse NEMO-K270A mutants (pLENTI-mNEMO-K270A-FLAG-Blasticidin and pLENTI-mNEMO-K270A-HA-Blasticidin), or mouse NEMO-wt (pLENTI-mNEMO-FLAG-Blasticidin). The sequences of mNEMO-K270A and mNEMO-wt are provided in SEQ ID NOs: 992 and 991, respectively. Approximately 1 day post-infection, cells were selected with blasticidin and cell numbers calculated periodically.
# Nalm-6-Luc cells = experiment: NSG mice xenografted with Nalm-6-Luc cells treated with CAR/SIR-T cells; type: in vivo, mouse; conditions: compared to 2nd generation CAR construct containing the 41BB costimulatory domain
# Method: After 10 days of expansion, the CAR/SIR-T cells are used for in vivo experiment. For this purpose, NSG mice are injected with 10^6 Nalm-6-Luc cells via tail vein injection. Two days later, 3×10^6 CAR/SIR-T cells injected. Mice are imaged weekly by bioluminescence imaging following administration of D-Luciferin and followed for survival.
# In addition, T cells expressing the first generation CARs along with hNEMO-K277A (SEQ ID NO: 1594-1604) show less signs of exhaustion as measured by cell proliferation, cytokine (IL2, IFNγ, TNFα) production, expression of exhaustion markers (e.g., PD1) and cytotoxicity (Matador cytotoxicity assay) when cocultured with RAJI cells over 3 weeks period as compared to T cells expressing 2nd generation CARs (SEQ ID NO: 1594-1604) with a BBz costimulatory domain. […] The T cells expressing the first generation CARs along with hNEMO-K277A (Backbone 2; SEQ ID NO: 1594-1604) in general show weaker production of cytokines (e.g., IL2, IFNγ and TNFα) when exposed to RAM cells as compared to T cells expressing first generation CARs and coexpressing vFLIP K13 (i.e., Backbone 1; SEQ ID NO: 1016-1029).
# BM-derived DCs = experiment: IL-12p70 and TNF-α ELISA of dendritic cell culture supernatants; type: cell-based, mouse; conditions: culture of transduced DCs
# Method: ELISA. Culture supernatants are harvested from DCs plated at 5×10^5 cells per well (in 1.5 ml). IL-12p70 and tumor necrosis factor alpha (TNF-α) are detected by sandwich enzyme-linked immunosorbent assay (ELISA), using kits from eBioscience according to the manufacturer's guidelines.
# After transduction of BM-derived DCs with human NEMO-K277A-, human NEMO-K277A-deltaV249-K255-, mouse NEMO-K270A- and IKK2-S177E-S181E, maturation markers on the transduced or nontransduced cells are analyzed.
# CD19 = molecular target: T1, CD19; experiment: CAR-T cell in vitro and in vivo assay panel (IL2 production, proliferation, exhaustion, in vivo expansion, anti-tumor activity); set-up: endogenous in cells; host or cells: RAJI cells in vitro; Nalm-6-Luc cells xenografted in NSG mice
Molecule,ability of T cells to proliferate long term in culture (CD3+ve T cells),in vivo efficacy of CD19-CAR constructs lacking any costimulatory domain (Nalm-6-Luc cells),secretion of IL-12p70 and TNF-α (BM-derived DCs),"activity of T cells with K277A mutation induced in the endogenous NEMO gene (CD19; gene editing, compared to control T cells lacking the mutation)","in vitro and in vivo performance of CAR-T cells, module on a separate lentiviral vector (CD19; two lentiviral vectors, MOI 5, CAR:hNEMO-K277A 1:1 to 1:10)","cytokine production, proliferation, in vivo expansion and anti-tumor activity of CAR-T cells (CD19)"
"hNEMO-K277A: human NEMO mutant K277A, constitutively active selective NF-κB activator used as accessory module",extends their ability to proliferate long term in culture without undergoing senescence,superior in vivo efficacy,upregulated,"enhanced proliferation, cytokine production, expansion, long term persistence in vivo and anti-tumor activity",improve the in vitro and in vivo performance of CAR-T cells,–
B1,extends their ability to proliferate long term in culture without undergoing senescence,superior in vivo efficacy,upregulated,–,–,"increased cytokine production, proliferation, in vivo expansion and anti-tumor activity"
